# Laboratory results: patent US20210369724A1, “COMBINATION OF ATR KINASE INHIBITORS WITH 2,3-DIHYDROIMIDAZO[1,2-C]QUINAZOLINE COMPOUNDS” (Bayer Aktiengesellschaft, priority 2018, published 2021)
# Like-named read-outs stand apart in the source and are kept apart here. Marks after values point to notes of the source that are not given here.
# Columns and labels:
# LNCaP = assay: Proliferation assay of prostate cancer cell lines with R1881 (Cell Titre-Glo, 144 h); format: cell-based; conditions: Homo sapiens, read-out: IC50, mono
# [1] = system: SUM-149 breast cancer xenograft; conditions: mouse, in vivo, po, 20 mg/kg
# [2] = system: IGR-OV1 endometrial cancer xenograft; conditions: mouse, in vivo, po, 20 mg/kg
# [3] = system: Ri-1 B cell lymphoma xenograft; conditions: mouse, in vivo, po, 20 mg/kg
# [4] = system: 22Rv1 prostate cancer xenograft; assay: Human 22Rv1 prostate cancer xenograft model; conditions: mouse, in vivo; for T/C: po
# C4-2B = assay: Proliferation assay of prostate cancer cell lines with R1881 (Cell Titre-Glo, 144 h); format: cell-based; conditions: Homo sapiens, read-out: IC50, mono
# OVCAR-3 = assay: 72-hour growth assay of ovary cancer cell lines (Cell Titre-Glo); format: cell-based; conditions: Homo sapiens, OVCAR-3, 72 h, read-out: IC50, mono [M]
# [5] = system: IGR-OV1 endometrial cancer xenograft; assay: Human IGR-OV1 endometrial cancer xenograft model; conditions: mouse, in vivo, po, 20 mg/kg
# IGR-OV1 cancer xenograft = assay: Human IGR-OV1 endometrial cancer xenograft model; conditions: mouse, in vivo
# SUM-149 = assay: Proliferation assay, mono and fixed-ratio combinations (Cell Titre-Glo, 96 h); format: cell-based; conditions: Homo sapiens, SUM149, 96 h, read-out: IC50, mono
# IGR-OV1 = assay: as above; format: cell-based; conditions: Homo sapiens, IGROV-1, 96 h, read-out: IC50, mono
# VCaP = assay: Proliferation assay of prostate cancer cell lines with R1881 (Cell Titre-Glo, 144 h); format: cell-based; conditions: Homo sapiens, read-out: IC50, mono
# Huh-7 = assay: Proliferation assay, mono and fixed-ratio combinations (Cell Titre-Glo, 96 h); format: cell-based; conditions: Homo sapiens, Huh-7, 96 h, read-out: IC50, mono
# [6] = system: 22Rv1 prostate cancer xenograft; conditions: mouse, in vivo, po
# NCI-H460 = assay: Proliferation assay of cell lines treated with Compound A, Compound B and fixed-ratio combinations (Cell Titre-Glo, 96 h); format: cell-based; conditions: Homo sapiens, NCI-H460, 96 h, read-out: IC50, mono
# MDA-MB-468 = assay: Proliferation assay, mono and fixed-ratio combinations (Cell Titre-Glo, 96 h); format: cell-based; conditions: Homo sapiens, MDA-MB-468, 96 h, read-out: IC50, mono
# [7] = system: Ri-1 B cell lymphoma xenograft; assay: Human Ri-1 B cell lymphoma xenograft model; conditions: mouse, in vivo
# SNU-449 = assay: Proliferation assay, mono and fixed-ratio combinations (Cell Titre-Glo, 96 h); format: cell-based; conditions: Homo sapiens, SNU-449, 96 h, read-out: IC50, mono
# [8] = system: small cell lung cancer cell line NCI-H1048; assay: Full matrix combination, 72-hour proliferation assay (CellTiter-Glo); format: cell-based
# Method: Percentage of control (DMSO) in tumor cell growth assay in vitro is used for the assessment of combination effects.
# The efficacy parameters were the effects in a 72-hour assay. Tumor cells were cultured in 37° C. incubator in their respective growth medium and serum according to the protocol from providers. […] Cell viability was assessed after 72 hour exposure with the Cell Titre-Glo Luminescent Cell Viability Assay (Promega).
# HCT 116 = assay: Proliferation assay, mono and fixed-ratio combinations (Cell Titre-Glo, 96 h); format: cell-based; conditions: Homo sapiens, HCT-116, 96 h, read-out: IC50, mono
# A2780 = assay: 72-hour growth assay of ovary cancer cell lines (Cell Titre-Glo); format: cell-based; conditions: Homo sapiens, A2780, 72 h, read-out: IC50, mono [M]
# [9] = system: SUM-149 breast cancer xenograft; assay: Human SUM-149 breast cancer xenograft model; conditions: mouse, in vivo
compound,measurement,setting,value
"C[C@@H]1COCCN1c1cc(-c2ccnn2C)c2ccnc(-c3ccn[nH]3)c2n1 [Compound B, 2-[(3R)-3-methylmorpholin-4-yl]-4-(1-methyl-1H-pyrazol-5-yl)-8-(1H-pyrazol-5-yl)-1,7-naphthyridine]",IC50,LNCaP,15 nM
same,Max. weight loss (%),[1],−4%
same,Max. weight loss (%),[2],−6%
same,Max. weight loss (%),[3],−8%
same,Anti-tumor efficacy of monotherapy compared to control,[4],weak to moderate and statistically significant improved anti-tumor efficacy
same,T/C,[4]; 10 mg/kg,0.56*
same,T/C,[4]; 20 mg/kg,0.31*
same,IC50,C4-2B,35 nM
same,IC50,OVCAR-3,1.65e-07 M
same,T/C,[5],0.33*
same,Anti-tumor efficacy of monotherapy compared to control,IGR-OV1 cancer xenograft,good to moderate and statistically significant improved anti-tumor efficacy
same,IC50,SUM-149,18 nM
same,IC50,IGR-OV1,40 nM
same,IC50,VCaP,16 nM
same,IC50,Huh-7,51 nM
same,Max. weight loss (%),[6]; 10 mg/kg,−2%
same,Max. weight loss (%),[6]; 20 mg/kg,−6%
same,IC50,NCI-H460,250 nM
same,IC50,MDA-MB-468,190 nM
same,Anti-tumor efficacy of monotherapy compared to control,[7],good and statistically significant improved anti-tumor efficacy
same,T/C,"[7]; po, 20 mg/kg",0.32*
same,IC50,SNU-449,470 nM
same,growth inhibition,[8],61%
same,IC50,HCT 116,200 nM
same,IC50,A2780,6.82e-08 M
same,Anti-tumor efficacy of monotherapy compared to control,[9],weak to moderate and statistically significant improved anti-tumor efficacy
same,T/C,"[9]; po, 20 mg/kg",0.32*
